Consider three compounds from US20100120763A1, “IMIDAZO[5,1-C][1,2,4]BENZOTRIAZINE DERIVATIVES AS INHIBITORS OF PHOSPHODIESTERASES” (priority 2008, published 2010).

Chains of the proteins cited; added tags and fusions are not shown.
UniProt O00408, whole entry: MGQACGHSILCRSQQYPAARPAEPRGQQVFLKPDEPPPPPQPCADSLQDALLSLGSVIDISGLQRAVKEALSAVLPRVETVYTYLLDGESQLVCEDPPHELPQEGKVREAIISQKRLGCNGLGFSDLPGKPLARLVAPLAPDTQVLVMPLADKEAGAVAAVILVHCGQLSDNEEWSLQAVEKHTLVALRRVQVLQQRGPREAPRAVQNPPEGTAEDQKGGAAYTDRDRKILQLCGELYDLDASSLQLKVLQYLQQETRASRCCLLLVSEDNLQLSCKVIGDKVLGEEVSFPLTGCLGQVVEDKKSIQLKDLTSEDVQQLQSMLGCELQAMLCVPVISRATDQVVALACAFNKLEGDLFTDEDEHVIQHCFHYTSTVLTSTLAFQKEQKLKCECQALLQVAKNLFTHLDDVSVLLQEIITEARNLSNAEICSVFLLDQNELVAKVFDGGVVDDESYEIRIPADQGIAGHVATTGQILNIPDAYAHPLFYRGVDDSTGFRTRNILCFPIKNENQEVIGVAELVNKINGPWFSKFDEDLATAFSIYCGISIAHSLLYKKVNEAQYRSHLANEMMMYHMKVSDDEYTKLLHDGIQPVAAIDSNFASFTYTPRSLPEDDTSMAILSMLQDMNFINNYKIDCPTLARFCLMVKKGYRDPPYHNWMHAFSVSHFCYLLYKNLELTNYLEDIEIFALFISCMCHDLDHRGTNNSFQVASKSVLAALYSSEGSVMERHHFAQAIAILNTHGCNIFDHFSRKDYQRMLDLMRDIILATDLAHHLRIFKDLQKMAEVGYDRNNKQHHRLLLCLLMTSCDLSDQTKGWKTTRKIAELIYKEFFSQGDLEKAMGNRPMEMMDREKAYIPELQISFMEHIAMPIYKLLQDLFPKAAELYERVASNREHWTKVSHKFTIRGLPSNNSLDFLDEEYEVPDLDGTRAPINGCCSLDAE

Like-named read-outs stand apart in the source and are kept apart here.

The target in this assay is T1, PDE2A (Homo sapiens, UniProt O00408).
T1 construct: made in house; host or cells: SF21 insect cells (baculovirus)
The assay can be described thus: Inhibition of recombinant PDE2A (expressed in baculovirus/SF21-cells), [3H]-cAMP SPA. It is filed as biochemical. As for the experimental part:
Inhibition of Recombinant PDE2A (Expressed in Baculovirus/SF21-Cells)
PDE2A (NM002599) was cloned and the gene was inserted in the baculovirus and the enzyme-protein expressed in SF21-cells. The enzyme was isolated from these cells by harvesting the cells by an centrifugation at 200 g to collect the cells. The cells were resuspended in 50 mM Tris-HCl/5 mM MgCl2 buffer (pH=7.4) (Sigma, Deisenhofen, Germany; Merck, Darmstadt, Germany) and lysed by a sonication of the cells (three times for 15 seconds, Labsonic U, Fa. Braun, Degersheim, Switzerland, level “high”). The membrane fraction of PDE2A was obtained by a centrifugation at 48 000 g for 1 h, resuspended in buffer and stored at −70° C.
PDE2A activity was determined in a one step procedure in microtiterplates. The reaction mixture of 100 μl contained 50 mM Tris-HCl/5 mM MgCl2 buffer (pH=7.4) (Sigma, Deisenhofen, Germany; Merck, Darmstadt, Germany), 0.5 μM [3H]-cAMP (Amersham, Buckinghamshire, UK), 1000 nM cGMP and the enzyme. Non-specific enzyme activity was tested in the absence of cGMP. The reaction was initiated by addition of the substrate solution and was carried out at 37° C. for 30 minutes. Enzymatic activity then was stopped by addition of 25 μl SPA-beads (Amersham-Pharmacia). One hour later the mixture was measured in a liquid scintillation counter for microtiterplates (Microbeta Trilux). For pipetting of the incubation mixture the robot Biomek (Fa. Beckman) was routinely used.
For determination of IC50 values the Hill-plot, 2-parameter-model, was used.

Where [1] appears, read: recombinant PDE2A, membrane fraction, 0.5 μM [3H]-cAMP, 1000 nM cGMP, 37° C., 30 minutes, read-out: PDE2A IC50.

In general, IC50 refers to the concentration that gives 50% inhibition. With “8-fluoro-6-methoxy-3-methyl-1-(2-methylpyridin-3-yl)imidazo[5,1-c][1,2,4]benzotriazine [Example 130]”, under setting [1], the IC50 amounted to 1.27 µM.
As for `COc1ccc(Cl)cc1-c1nc(C)c2nnc3c(OC)cc(C(F)(F)F)cc3n12` [Example 142, 1-(5-Chloro-2-methoxyphenyl)-6-methoxy-3-methyl-8-(trifluoromethyl)benzo[e]imidazo[5,1-c][1,2,4]triazine], the IC50 turned out to be 1.22 µM.
For “8-fluoro-6-methoxy-3-methyl-1-(3-methylpyridin-4-yl)imidazo[5,1-c][1,2,4]benzotriazine [Example 131]”, under setting [1], the IC50 was 1.22 µM.
